Data as given in US5811465A, “Composition, device, and method for electrotransport agent delivery” (priority 1997, dated 1998).

Conditions: 10 mM enhancer in 20% Ethanol; pH 7.30 (ODAA), 7.00 (A3); control = 1.00; 100 μA/cm^2, about 32° C.
Experimental: Human cadaver skin was prepared by first removing about 1 mm thick skin samples with an electric dermatome in the form of strips. The skin strips were placed in polyethylene bags, sealed and placed in a refrigerator at about 4° C. for temporary storage. Prior to use in the electrotransport cell, the skin strips were placed in one-liter beakers containing water at 60° C. for about 90 seconds with gentle stirring. Then, the skin strips were removed and placed onto the absorbent side of a piece of BENCHKOTE™ fabric with the dermis side down. Using flat tipped tweezers to retain the dermis, the epidermis was removed from each strip with a round-tip spatula. Each epidermis, stratum comeum side up, was transferred to a PYREX™ glass tray which was filled with water. […]
Dulbecco's phosphate buffered saline (about 0.15M NaCl with minor amounts of other ions, pH 7.0) was placed in the anodic receptor compartment 44. The skin resistance was calculated from the voltages applied by the galvanostat according to Ohm's law, ie, Rskin =ΔV/i, where ΔV is the potential applied by the galvanostat, and i is the applied current, 126 microamps.
The system was maintained at about 32° C. by a Haake Model D1 heating block/water bath. The cell voltage was monitored over the entire procedure, and then averaged. The skin resistance was calculated from Ohm's law as described above using the measured ΔV. […]

octyl-N,N-dimethyl-dodecylamino acetate [ODAA]
Normalized Ketoprofen Flux (after 5 hrs): 1.56
